Patent publication US5866681A, “Thrombin receptor antagonists” (priority 1995, dated 1999)

By UniProt entry, the sequences of proteins in these tests, tags left out. Residues count along the entry.
UniProt P25116, 22-425 limits assumed: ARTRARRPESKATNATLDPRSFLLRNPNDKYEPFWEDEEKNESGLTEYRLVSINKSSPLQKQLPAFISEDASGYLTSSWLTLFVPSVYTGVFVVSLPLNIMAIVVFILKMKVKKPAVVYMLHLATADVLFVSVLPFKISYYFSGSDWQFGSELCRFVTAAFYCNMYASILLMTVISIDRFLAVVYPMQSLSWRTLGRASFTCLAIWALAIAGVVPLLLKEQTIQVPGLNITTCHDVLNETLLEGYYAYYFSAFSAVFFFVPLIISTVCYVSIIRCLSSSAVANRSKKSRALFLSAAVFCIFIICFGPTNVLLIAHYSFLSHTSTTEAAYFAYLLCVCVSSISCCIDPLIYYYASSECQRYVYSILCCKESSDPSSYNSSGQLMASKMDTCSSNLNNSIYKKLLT

Biological target: thrombin receptor (Homo sapiens, UniProt P25116)
Assay: Platelet aggregation assay for thrombin receptor antagonist activity (washed human platelets stimulated with α-thrombin)
Type: cell-based
Conditions: read-out: IC50 (concentration at which 50% inhibition of platelet aggregation is achieved), thrombin-mediated aggregation
Protocol: The compounds of the present invention may be tested for thrombin receptor antagonist activity by using a platelet aggregation assay. In this assay, washed human platelets are prepared from blood drawn from healthy volunteers who have not ingested any medications for two weeks prior to donation. Blood is drawn into 12.5% (vol/vol) ACD (85 mM sodium citrate, 111 mM dextrose, 71 mM citric acid) containing 0.1% (vol/vol) PGI2 (0.05 mg/mL PGI2, 100 mM Tris, pH 12). Platelet-rich plasma was obtained by centrifugation at 160×g for 20 minutes. The platelets were pelleted by centrifugation at 760×g for 10 minutes and resuspended in CGS (13 mM trisodium citrate, 120 mM sodium chloride, 30 mM dextrose, pH 7.0) containing 0.1% (vol/vol) PGI2, repelleted and resuspended in Tyrodes buffer (10 mM Hepes, 12 mM sodium bicarbonate, 138 mM sodium chloride, 5.5 mM glucose, 2.9 mM potassium chloride, 1.0 mM calcium chloride, pH 7.4) and stored at 37° C. Approximately 0.4-10 nM α-thrombin is used to stimulate platelet aggregation in control reactions which are monitored by aggregometry using an aggregometer. […]
Platelet aggregation can also be measured with washed platelets in 96-well microtiter plates as described in Fratantoni, J. C. et al., Am. […] The ability of the antagonists to block the thrombin receptor was assessed in this assay using various concentrations of antagonists. […]

CCCCCN1Cc2ccccc2C[C@H]1C(=O)N[C@@H](CC1CCCCC1)C(=O)N[C@@H](CC1CCCCC1)C(=O)N(C)[C@@H](CCCNC(=N)N)C(N)=O
IC50: 5 µM

N=C(N)NCCC[C@H](NC(=O)[C@H](CCCNC(=N)N)NC(=O)[C@H](CC1CCCCC1)NC(=O)[C@@H](CCCOc1ccccc1)Cc1ccccc1)C(N)=O
IC50: 6 µM
